Experimental data from PubChem BioAssay (NCI).
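Assay format: 96-well plates, 48-hour exposure. Definition used: TGI = concentration required for complete inhibition of growth.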

Legend:
Experiment in all cases: DTP human tumour cell line panel, 48 h
NCI-H226 lung = test system: NCI-H226 lung
OVCAR-4 ovarian = test system: OVCAR-4 ovarian
HOP-62 NSCLC = test system: HOP-62 NSCLC
NCI/ADR-RES ovarian = test system: NCI/ADR-RES ovarian
HCC-2998 colon = test system: HCC-2998 colon
NCI-H322M lung = test system: NCI-H322M lung
CCRF-CEM leukemia = test system: CCRF-CEM leukemia
NCI-H460 lung = test system: NCI-H460 lung
SK-MEL-28 melanoma = test system: SK-MEL-28 melanoma
LOX IMVI melanoma = test system: LOX IMVI melanoma
NCI-H522 lung = test system: NCI-H522 lung
MCF7 breast = test system: MCF7 breast
SW-620 colon = test system: SW-620 colon
BT-549 breast = test system: BT-549 breast
HCT-116 colon = test system: HCT-116 colon
KM12 colon = test system: KM12 colon
HT29 colon = test system: HT29 colon
UO-31 renal = test system: UO-31 renal
A549 NSCLC = test system: A549 NSCLC
IGROV1 ovarian = test system: IGROV1 ovarian
A498 renal = test system: A498 renal
UACC-257 melanoma = test system: UACC-257 melanoma
SK-OV-3 ovarian = test system: SK-OV-3 ovarian
MOLT-4 leukemia = test system: MOLT-4 leukemia
HOP-92 NSCLC = test system: HOP-92 NSCLC
SK-MEL-2 melanoma = test system: SK-MEL-2 melanoma
MDA-MB-231 breast = test system: MDA-MB-231 breast
K-562 leukemia = test system: K-562 leukemia
NCI-H23 lung = test system: NCI-H23 lung
MALME-3M melanoma = test system: MALME-3M melanoma
SF-268 CNS = test system: SF-268 CNS
PC-3 prostate = test system: PC-3 prostate
SF-295 CNS = test system: SF-295 CNS
COLO 205 colon = test system: COLO 205 colon
EKVX NSCLC = test system: EKVX NSCLC
DU-145 prostate = test system: DU-145 prostate
HCT-15 colon = test system: HCT-15 colon
HS 578T breast = test system: HS 578T breast
CAKI-1 renal = test system: CAKI-1 renal
UACC-62 melanoma = test system: UACC-62 melanoma
U251 CNS = test system: U251 CNS
SNB-19 CNS = test system: SNB-19 CNS
OVCAR-8 ovarian = test system: OVCAR-8 ovarian
SK-MEL-5 melanoma = test system: SK-MEL-5 melanoma
OVCAR-3 ovarian = test system: OVCAR-3 ovarian
SN12C renal = test system: SN12C renal
M14 melanoma = test system: M14 melanoma
ACHN renal = test system: ACHN renal
T-47D breast = test system: T-47D breast
TK-10 renal = test system: TK-10 renal
OVCAR-5 ovarian = test system: OVCAR-5 ovarian
786-0 renal = test system: 786-0 renal

Measured: TGI

CN(C)CCn1c(Cn2nc3ccccc3n2)nc2cc(Cl)ccc21
34.2 µM: UO-31 renal
51.7 µM: MOLT-4 leukemia
69.9 µM: CCRF-CEM leukemia
70.5 µM: HCC-2998 colon
> 100 µM: all other assays above
